Screening data deposited in PubChem BioAssay by National Center for Advancing Translational Sciences (NCATS).
GALK inhibitor – galactokinase (human) inhibition | Purified GALK, Kinase-Glo residual ATP luminescence | AID 1868 | actives 0.007% (n = 270,000) | Potency, µM (highest dose often 57.5 µM), for inactives: at the top dose activity change, negative = inhibition, hits mostly inhibitors | P51570; further: potency means the concentration at half of the fitted maximal effect; on the % scale 0 is the no-effect control and ±100 the full control effect
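Quantitative HTS: GALK 5 nM, ATP 35 uM, galactose 100 uM, 1 h room temperature, then luciferase-based ATP detection.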
Coupling enz – coupling enzyme interference in Giardia aldolase counter-screen | actives 0.67% (n = 290,000) | AID 2472 | coupling enzyme system counterscreen, AmpLite Red fluorescence | activity change, negative = inhibition, % at 58.2 µM, hits read low; in the data active means activity change below about -30%; further: on the % scale 0 is the no-effect control and ±100 the full control effect
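Counterscreen of the coupled detection system alone, without aldolase: glyceraldehyde-3-phosphate coupling enzymes plus AmpLite Red readout. Compounds at 57.5 uM final, 10 min RT preincubation, 20 min RT reaction, fluorescence 525/598 nm.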
uPA generation – blocks generation of uPA at the cell surface; Potency, µM (series often up to 38.3 µM), without a hit: top-dose activity change, negative = inhibition, hits mostly inhibitors; actives 0.31% (n = 330,000); cell surface uPA generation assay, qHTS; active means well fitted inhibition curve with a large enough effect; inconclusive means small, poorly fitted or top-dose-only effect; inactive means no such curve, though single readings can be large or run the other way; tested in mouse RAW 264.7 cells; further: potency means the concentration at half of the fitted maximal effect; on the % scale 0 is the no-effect control and ±100 the full control effect; nearly all actives have a fitted effect of over 55% in size
B2AR arrestin – agonists driving beta-arrestin recruitment to human beta2-adrenergic receptor | actives 0.02% (n = 330,000) | Potency, µM (highest dose often 46.1 µM), for inactives: at the top dose activation, most hits filed as activators | beta-arrestin recruitment to beta2AR, cell-based reporter | P07550 | AID 492947;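 further: potency means the concentration at half of the fitted maximal effect; 0% = DMSO controls and full agonism = EC100 isoproterenol or metaproterenol; nearly all actives have a fitted effect of over 65% in size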
Giardia killer – Giardia lamblia killing | Giardia lamblia trophozoite viability | AID 540267 | actives 0.15% (n = 340,000) | activity change, % at 7.66 µM, hits read low; in the data active means activity change below about -80%; inconclusive means between about -30% and that limit;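 further: parasites exposed to compound for two days anaerobically before the ATP read; on the % scale 0 is the no-effect control and ±100 the full control effect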
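Compounds were tested on trophozoites seeded at 100 cells/well and held 48 hrs at 37 deg C anaerobically. An ATP-based luminescent kit measured the remaining live cells.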
miR-21 FLuc – miR-21 reporter, rising signal. HeLa miR-21 FLuc reporter, luciferase, 48 h. Potency, µM (highest dose often 38.3 µM), for the others: at the highest dose reporter change, positive = more light. 340,000 tested, under 10 active. AID 2288; active = well fitted rising curve with a large enough effect; inconclusive = small, poorly fitted or top-dose-only effect; inactive = no such curve, though single readings can be large or run the other way;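 further: % of control where 0% means no effect; miR-21 action dims this reporter so a rising signal means less miR-21 action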
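HeLa cells stably expressing CMV-driven firefly luciferase with a downstream miR-21 binding sequence, endogenously expressing miR-21, were treated with titrations (up to about 40uM final) for 48 hours at 37 degree Celsius. Luciferase luminescence was read after lysis.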
Active calls of the source: *. Compounds with a hit are over-represented: about 0.92% of the library has one in this group of screens. Unless noted, the call rests on the fitted dose curve; in most records, active means well fitted curve in the direction sought with a large enough effect; inconclusive means small, poorly fitted or top-dose-only effect, or another doubt; inactive means no such curve, though single readings can be large; an effect the other way counts as inactive or inconclusive.

What do the screens show for `COCCn1c(C)cc(/C=C2/SC(=O)N(C(C)C(=O)OC)C2=O)c1C` (stereo unspecified)?
GALK inhibitor: -3%; Coupling enz: -6; uPA generation: 11µM*; B2AR arrestin: 0%; Giardia killer: inconclusive; miR-21 FLuc: -51%

What do the screens show for `CCOC(=O)c1c(C)n(-c2ccc(C)cc2)c2c(CC(C)=O)c(Br)c(OC)c(O)c12`?
GALK inhibitor: 0%; Coupling enz: 0; uPA generation: -4%; B2AR arrestin: -1%; Giardia killer: 0; miR-21 FLuc: -4%

Results for CCOC(=O)c1c(C)n(-c2ccc(C)cc2)c2c(C(C(C)=O)C(=O)O)c(Br)c(O)c(O)c12 (stereo unspecified) ?
GALK inhibitor: -4%; Coupling enz: -34*; uPA generation: -3%; B2AR arrestin: 0%; Giardia killer: 3; miR-21 FLuc: 0%

What do the screens show for `COc1ccc(-c2nnc3n2N=C(c2ccc(OC)cc2OC)CS3)cc1`?
Coupling enz: 0

What do the screens show for `CCOc1ccccc1-n1nnc(S(=O)(=O)c2ccc(C)cc2)c1N`?
miR-21 FLuc: 6%

How did O=S(=O)(Oc1ccccc1/C=N/n1cnnc1)c1ccccc1 do in these assays?
GALK inhibitor: 6%; Coupling enz: -49*; uPA generation: 10%; B2AR arrestin: 0%; Giardia killer: 1; miR-21 FLuc: -17%

What do the screens show for `COc1ccccc1/C=N/n1cnnc1`?
GALK inhibitor: 1%; Coupling enz: 1; uPA generation: 5%; B2AR arrestin: 0%; Giardia killer: -4; miR-21 FLuc: -4%

How did COc1ccc(/C=N/NC2=NS(=O)(=O)c3ccccc32)cc1 do in these assays?
GALK inhibitor: 9%; Coupling enz: 3; uPA generation: -3%; B2AR arrestin: -1%; Giardia killer: -6; miR-21 FLuc: -1%

Results for O=S1(=O)N=C(N/N=C/c2ccccn2)c2ccccc21 ?
GALK inhibitor: 0%; Coupling enz: -32*; uPA generation: -5%; B2AR arrestin: -1%; Giardia killer: -3; miR-21 FLuc: -6%

What do the screens show for `Cn1c(SCc2ccccc2)nc(N)c(N=O)c1=O`?
uPA generation: 3.5µM*; Giardia killer: 8

Results for S=C(Nc1ccc2nc(-c3ccccn3)c(-c3ccccn3)nc2c1)N1CCOCC1 ?
GALK inhibitor: -2%; Coupling enz: -41*; uPA generation: 0%; B2AR arrestin: -1%; Giardia killer: -15; miR-21 FLuc: -2%

Results for CC(C)(C)CC(C)(C)NC(=S)Nc1ccc2nc(-c3ccccn3)c(-c3ccccn3)nc2c1 ?
GALK inhibitor: -1%; Coupling enz: -56*; B2AR arrestin: 0%; Giardia killer: 3; miR-21 FLuc: 22%

In the list so far, 2 have bromine.
What do the screens show for `CCOC(=O)c1c(C)n(-c2ccc(C)cc2)c2c(CC(C)=O)c(Br)c(OC)c(O)c12`?
GALK inhibitor: 0%; Coupling enz: 0; uPA generation: -4%; B2AR arrestin: -1%; Giardia killer: 0; miR-21 FLuc: -4%

Results for CCOC(=O)c1c(C)n(-c2ccc(C)cc2)c2c(C(C(C)=O)C(=O)O)c(Br)c(O)c(O)c12 (stereo unspecified) ?
GALK inhibitor: -4%; Coupling enz: -34*; uPA generation: -3%; B2AR arrestin: 0%; Giardia killer: 3; miR-21 FLuc: 0%

(further entries)
Results for OCCCNC(=S)Nc1ccc2nc(-c3ccccn3)c(-c3ccccn3)nc2c1 ?
GALK inhibitor: -1%; Coupling enz: -33*; uPA generation: 5%; B2AR arrestin: 0%; Giardia killer: 2; miR-21 FLuc: 0%

What do the screens show for `CN(C)NC(=S)Nc1ccc2nc(-c3ccccn3)c(-c3ccccn3)nc2c1`?
GALK inhibitor: -4%; Coupling enz: -17; uPA generation: 1%; B2AR arrestin: 0%; Giardia killer: -7; miR-21 FLuc: -10%

How did O=C(O)c1ccc2c(c1)C(=O)N([C@H](Cc1ccc(O)c(O)c1)C(=O)O)C2=O do in these assays?
Coupling enz: 0; B2AR arrestin: 0%

Results for Cc1ccc2c(c1)Cc1c(nc(-c3ccc(F)cc3)nc1SCC(=O)N1CCCCC1)O2 ?
miR-21 FLuc: 2%

What do the screens show for `Cc1c(NC(=O)Nc2ccccc2C(F)(F)F)sc2nc3n(c(=O)c12)CCC(C)CC3` (stereo unspecified)?
miR-21 FLuc: 2%

Results for Cc1ccc(NC(c2cccc(Cl)c2)c2nnc(-c3ccccc3)o2)cc1F (stereo unspecified) ?
miR-21 FLuc: -1%

What do the screens show for `CCOc1ccc(C[C@H]2NC(=O)CCSSC[C@@H](C(=O)N3CCC[C@H]3C(=O)N[C@@H](CCCN)C(=O)NCC(N)=O)NC(=O)[C@H](CC(N)=O)NC(=O)[C@H]([C@@H](C)O)NC(=O)[C@H]([C@@H](C)CC)NC2=O)cc1`?
Coupling enz: 5

Results for C=CCn1c(N)c(C(=O)Nc2cccc(C)c2)c2nc3ccccc3nc21 ?
GALK inhibitor: -1%; Coupling enz: -34*; uPA generation: 6%; B2AR arrestin: 0%; Giardia killer: -14; miR-21 FLuc: -1%

What do the screens show for `Cc1cc(O)c(-c2cc(O)c(C)cc2O)cc1O`?
GALK inhibitor: -1%; Coupling enz: -50*; uPA generation: 15%; B2AR arrestin: 0%; Giardia killer: 6; miR-21 FLuc: inconclusive

Results for Cn1c(=O)c2c(nc(CN3CCN(Cc4ccccc4)CC3)n2Cc2cccc(Cl)c2)n(C)c1=O ?
GALK inhibitor: 1%; Coupling enz: 3; uPA generation: -27%; B2AR arrestin: 0%; Giardia killer: 9; miR-21 FLuc: 16%

Results for Cn1c(=O)c2c(nc(CN3CCc4ccccc4C3)n2Cc2cccc(Cl)c2)n(C)c1=O ?
GALK inhibitor: -4%; Coupling enz: -24; uPA generation: 7.9µM*; B2AR arrestin: 1%; Giardia killer: -4; miR-21 FLuc: 26%

How did Nc1nc2ccccc2n1C(=O)c1ccccc1 do in these assays?
GALK inhibitor: 7%; Coupling enz: -3; uPA generation: 2.8µM*; B2AR arrestin: -1%; Giardia killer: inconclusive; miR-21 FLuc: 19%

Two successive entries from above, quoted:
Results for Cn1c(=O)c2c(nc(CN3CCc4ccccc4C3)n2Cc2cccc(Cl)c2)n(C)c1=O ?
GALK inhibitor: -4%; Coupling enz: -24; uPA generation: 7.9µM*; B2AR arrestin: 1%; Giardia killer: -4; miR-21 FLuc: 26%

How did Nc1nc2ccccc2n1C(=O)c1ccccc1 do in these assays?
GALK inhibitor: 7%; Coupling enz: -3; uPA generation: 2.8µM*; B2AR arrestin: -1%; Giardia killer: inconclusive; miR-21 FLuc: 19%

More records
What do the screens show for `Nc1nc2ccccc2n1C(=O)c1ccc(F)cc1`?
GALK inhibitor: 1%; Coupling enz: -3; uPA generation: -14%; B2AR arrestin: 0%; Giardia killer: -23; miR-21 FLuc: 18%

How did Cc1c(C(=O)N2CCCCCC2)c(S(=O)(=O)Nc2cccc(C#N)c2)c(C)n1C do in these assays?
miR-21 FLuc: -4%

What do the screens show for `CCCN1CCN(CCCNC(=O)Cn2c(-c3cccs3)cc3ccccc32)CC1`?
miR-21 FLuc: 5%

How did CC(=O)Nc1ccc(Nc2nc3ccc(Cl)cc3n3cnnc23)cc1 do in these assays?
miR-21 FLuc: -9%

How did c1ccc2c(CCNc3ncnc4nc[nH]c34)c[nH]c2c1 do in these assays?
GALK inhibitor: 0%; Coupling enz: 1; uPA generation: 2.8µM*; B2AR arrestin: 0%; Giardia killer: 19; miR-21 FLuc: 9%

Results for c1ccc(CCNc2ncnc3nc[nH]c23)cc1 ?
GALK inhibitor: 1%; Coupling enz: -5; uPA generation: -4%; B2AR arrestin: 0%; Giardia killer: 2; miR-21 FLuc: -21%
